Our source for the IC50 and Ki values is patent US20230112958A1, “Smart Drug Delivery System and Pharmaceutical Kit for Dual Nuclear Medical Cytotoxic Theranostics” (SCV-SpezialChemikalienVertrieb GmbH, priority 2019, published 2023).

Amino acid sequences for entries named in this document (tags omitted).
UniProt Q04609, whole entry: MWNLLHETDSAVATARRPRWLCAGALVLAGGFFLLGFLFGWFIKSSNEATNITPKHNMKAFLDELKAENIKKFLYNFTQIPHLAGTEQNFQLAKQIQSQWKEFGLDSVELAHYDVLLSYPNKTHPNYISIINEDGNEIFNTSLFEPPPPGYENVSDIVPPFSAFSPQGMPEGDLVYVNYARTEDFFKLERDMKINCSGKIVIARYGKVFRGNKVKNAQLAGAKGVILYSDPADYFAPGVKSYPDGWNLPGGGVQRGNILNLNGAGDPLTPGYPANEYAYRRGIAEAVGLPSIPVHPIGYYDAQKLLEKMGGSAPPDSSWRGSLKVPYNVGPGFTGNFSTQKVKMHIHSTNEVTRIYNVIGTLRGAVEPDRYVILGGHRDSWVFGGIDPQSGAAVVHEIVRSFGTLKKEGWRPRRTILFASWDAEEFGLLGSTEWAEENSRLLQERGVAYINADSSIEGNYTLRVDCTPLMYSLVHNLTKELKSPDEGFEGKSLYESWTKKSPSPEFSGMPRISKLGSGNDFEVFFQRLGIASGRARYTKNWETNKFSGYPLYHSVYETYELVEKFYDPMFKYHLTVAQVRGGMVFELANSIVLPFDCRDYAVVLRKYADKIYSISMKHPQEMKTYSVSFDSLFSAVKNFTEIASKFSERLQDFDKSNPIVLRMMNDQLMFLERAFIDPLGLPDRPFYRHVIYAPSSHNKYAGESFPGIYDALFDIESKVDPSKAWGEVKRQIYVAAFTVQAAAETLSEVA

This assay deals with PSMA (Homo sapiens, UniProt Q04609). The assay can be described thus: Cell-based competitive PSMA binding assay on LNCaP cells against reference 68Ga[Ga]PSMA-10. The settings on record: for Ki: read-out: Ki (PSMA binding affinities), competition with 68Ga[Ga]PSMA-10, 45 min incubation, calculated from inhibition curves.

For the compound `CCOc1c(NCCCC[C@H](NC(=O)N[C@@H](CCC(=O)O)C(=O)O)C(=O)O)c(=O)c1=O`, the Ki (in general, the equilibrium dissociation constant of an inhibitor or competing ligand from its target) was 0.0293 µM. Moreover, the IC50 (in general, the concentration at which inhibition is half-maximal) (read-out: IC50 (PSMA binding affinities), competition with 68Ga[Ga]PSMA-10, 45 min incubation) was determined as 0.0359 µM.

In the case of `NCCN1CCN(CC(=O)O)CCN(C(CCC(=O)NCCNc2c(NCCCCC(NC(=O)NC(CCC(=O)O)C(=O)O)C(=O)O)c(=O)c2=O)C(=O)O)CCN(CC(=O)O)CC1` (stereo not drawn), the Ki is 0.0181 µM.
